Laboratory results taken from patent publication US10391151B2, “Dilute surfactant or isolated surfactant protein solution for the reduction of surface tension in the lung” (The Trustees of the Stevens Institute of Technology, priority 2015, dated 2019).

Legend:
[1] = system: surface alveoli of the isolated adult rat lung; experiment: Surface tension determination in alveoli of the isolated adult rat lung (Method 1); settings: adult rat lung (FIGS. 1A-1D, injury score and surface tension)
Procedure: Method 1. Surface tension determination in the adult rat lung. In the isolated adult rat lung, a surface alveolus is micropunctured and a test solution, labeled with a low concentration of fluorescent dye verified not to alter surface tension, is instilled. In flooded alveoli, the air-liquid interface forms a meniscus, at which surface tension is determined as follows. Alveolar air pressure is determined with a transducer at the trachea of the constantly-inflated lung. Alveolar liquid phase pressure is determined by servo-nulling pressure measurement. Meniscus radius of curvature is determined by confocal microscopy. Surface tension is calculated according to the Lapalce relation.
1. direct surface tension determination in surface alveoli of the isolated adult rat lung, which contains native lung surfactant, following alveolar instillation of a test solution;

[2] = Surface tension in a liquid drop in vitro (Method 4); format: physicochemical
Procedure: Method 4. Surface tension in a liquid drop. […] Liquid pressure in the drop is determined by servo-nulling pressure measurement; interfacial radius of curvature is determined by confocal microscopy; and air pressure is known to be atmospheric. Surface tension is calculated according to the Laplace relation and found to be 72±2 mN/m for normal saline, as expected.
4. surface tension determination in a normal saline drop containing known quantities of additional solutes and no lipids other than any that are added to it.

albumin: most abundant plasma protein, 66 kD; negatively charged facilitating solute
Albumin concentrations that facilitate the surface activity of 1 vol % SURVANTA solution [1]: 3-11 w/v %
Optimal albumin concentration for the facilitation of 1% SURVANTA ([2]; 3 μl normal saline drops (FIG. 4)): ~5%
Albumin concentration range that facilitates 1 vol % SURVANTA (upper end) ([2]; in vitro): < 10 vol %
Facilitation of the surface activity of SURVANTA ([2]; in vitro): required to facilitate
